The values that follow come from ChEMBL document CHEMBL4325887, “Lipophilic Permeability Efficiency Reconciles the Opposing Roles of Lipophilicity in Membrane Permeability and Aqueous Solubility” (J Med Chem, 2018).

This data set in a line: Apparent permeability of compound in pH 7.4 PBS after 16 hrs by PAMPA assay. The data set is classed as ADME.

As to `CC[C@H](C)[C@@H]1NC(=O)[C@H](Cc2ccc(O)cc2)N(C)C(=O)[C@H](C)NC(=O)CN(C)C(=O)[C@@H]2CCCN2C(=O)[C@@H](Cc2ccccc2)N(C)C(=O)[C@H](CC(C)C)NC1=O`, the Papp at 16 h is 1.2 ×10⁻⁶ cm/s.

Turning to `CC[C@H](C)[C@@H]1NC(=O)[C@H](Cc2ccc(O)cc2)N(C)C(=O)[C@H](Cc2ccccc2)NC(=O)CN(C)C(=O)[C@@H]2CCCN2C(=O)[C@@H](Cc2ccccc2)N(C)C(=O)[C@H](C)NC1=O`, the Papp at 16 h turned out to be 2.2 ×10⁻⁶ cm/s.

Turning to `CC[C@H](C)[C@@H]1NC(=O)[C@H](Cc2ccc(O)cc2)N(C)C(=O)[C@H](Cc2ccccc2)NC(=O)CN(C)C(=O)[C@@H]2CCCN2C(=O)[C@@H](Cc2ccccc2)N(C)C(=O)[C@H](CC(C)C)NC1=O` [CORDYHEPTAPEPTIDE A], the Papp at 16 h turned out to be 1.2 ×10⁻⁶ cm/s.
